Laboratory results published in ChEMBL document CHEMBL1146151, “Polyoxometalates--a new class of potent ecto-nucleoside triphosphate diphosphohydrolase (NTPDase) inhibitors” (Bioorg Med Chem Lett, 2006).

Target: T1, Ectonucleoside triphosphate diphosphohydrolase 2 (Rattus norvegicus, UniProt O35795)
T1 sequence (O35795 whole entry): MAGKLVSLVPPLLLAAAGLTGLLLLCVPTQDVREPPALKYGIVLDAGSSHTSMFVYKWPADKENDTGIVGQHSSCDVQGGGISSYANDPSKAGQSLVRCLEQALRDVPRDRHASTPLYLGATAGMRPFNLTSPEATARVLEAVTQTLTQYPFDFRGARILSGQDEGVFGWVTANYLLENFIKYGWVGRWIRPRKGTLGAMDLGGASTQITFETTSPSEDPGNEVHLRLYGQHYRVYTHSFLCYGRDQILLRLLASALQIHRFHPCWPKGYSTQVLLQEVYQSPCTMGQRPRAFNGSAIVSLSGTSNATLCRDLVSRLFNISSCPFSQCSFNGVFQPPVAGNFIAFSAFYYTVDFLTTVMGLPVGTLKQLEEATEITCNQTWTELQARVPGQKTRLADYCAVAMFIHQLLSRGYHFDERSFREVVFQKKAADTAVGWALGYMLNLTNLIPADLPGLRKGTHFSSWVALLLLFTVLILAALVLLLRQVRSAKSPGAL
Test: Inhibition of rat recombinant NTPDase2 expressed in CHO cells
Type: cell-based

**Q.** For `Nc1c(S(=O)(=O)O)cc(Nc2ccc(Nc3nc(Cl)nc(Nc4cccc(S(=O)(=O)O)c4)n3)c(S(=O)(=O)O)c2)c2c1C(=O)c1ccccc1C2=O` [RB 2], which Ki is on record?
**A.** The Ki was 24.2 µM.
